Laboratory results from patent US20260092099A1 (SPIN THERAPEUTICS, published 2026).

T1: human neutrophil elastase (human, UniProt P08246 30-247, limits assumed)
T1 sequence (looked up): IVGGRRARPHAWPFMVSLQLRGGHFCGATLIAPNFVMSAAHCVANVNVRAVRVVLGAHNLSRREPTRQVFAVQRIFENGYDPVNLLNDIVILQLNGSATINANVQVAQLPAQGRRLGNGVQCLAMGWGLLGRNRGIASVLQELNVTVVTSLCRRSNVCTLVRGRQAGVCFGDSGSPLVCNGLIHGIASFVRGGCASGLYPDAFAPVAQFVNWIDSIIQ

B1: PP12288-J1350 AAT (wild type AAT-linker-albumin fusion) (other)
chain: EDPQGDAAQKTDTSHHDQDHPTFNKITPNLAEFAFSLYRQLAHQSNSTNIFFSPVSIATAFAMLSLGTKADTHDEILEGLNFNLTEIPEAQIHEGFQELLRTLNQPDSQLQLTTGNGLFLSEGLKLVDKFLEDVKKLYHSEAFTVNFGDTEEAKKQINDYVEKGTQGKIVDLVKELDRDTVFALVNYIFFKGKWERPFEVKDTEEEDFHVDQVTTVKVPMMKRLGMFNIQHCKKLSSWVLLMKYLGNATAIFFLPDEGKLQHLENELTHDIITKFLENEDRRSASLHLPKLSITGTYDLKSVLGQLGITKVFSNGADLSGVTEEAPLKLSKAVHKAVLTIDEKGTEAAGAMFLEAIPMSIPPEVKFNKPFVFLMIEQNTKSPLFMGKVVNPTQKGGSGGSGGSGGSGG[skipping about 600 residues]
B2: PP12289-J1351 C232S (mutant AAT-linker-albumin fusion) (other)
chain: EDPQGDAAQKTDTSHHDQDHPTFNKITPNLAEFAFSLYRQLAHQSNSTNIFFSPVSIATAFAMLSLGTKADTHDEILEGLNFNLTEIPEAQIHEGFQELLRTLNQPDSQLQLTTGNGLFLSEGLKLVDKFLEDVKKLYHSEAFTVNFGDTEEAKKQINDYVEKGTQGKIVDLVKELDRDTVFALVNYIFFKGKWERPFEVKDTEEEDFHVDQVTTVKVPMMKRLGMFNIQHSKKLSSWVLLMKYLGNATAIFFLPDEGKLQHLENELTHDIITKFLENEDRRSASLHLPKLSITGTYDLKSVLGQLGITKVFSNGADLSGVTEEAPLKLSKAVHKAVLTIDEKGTEAAGAMFLEAIPMSIPPEVKFNKPFVFLMIEQNTKSPLFMGKVVNPTQKGGSGGSGGSGGSGG[skipping about 600 residues]
B3: PP12290-J1352 M351V, M358V (mutant AAT-linker-albumin fusion) (other)
chain: EDPQGDAAQKTDTSHHDQDHPTFNKITPNLAEFAFSLYRQLAHQSNSTNIFFSPVSIATAFAMLSLGTKADTHDEILEGLNFNLTEIPEAQIHEGFQELLRTLNQPDSQLQLTTGNGLFLSEGLKLVDKFLEDVKKLYHSEAFTVNFGDTEEAKKQINDYVEKGTQGKIVDLVKELDRDTVFALVNYIFFKGKWERPFEVKDTEEEDFHVDQVTTVKVPMMKRLGMFNIQHCKKLSSWVLLMKYLGNATAIFFLPDEGKLQHLENELTHDIITKFLENEDRRSASLHLPKLSITGTYDLKSVLGQLGITKVFSNGADLSGVTEEAPLKLSKAVHKAVLTIDEKGTEAAGAVFLEAIPVSIPPEVKFNKPFVFLMIEQNTKSPLFMGKVVNPTQKGGSGGSGGSGGSGG[skipping about 600 residues]
B4: PP12291-J1353 M351V, M358L (mutant AAT-linker-albumin fusion) (other)
chain: EDPQGDAAQKTDTSHHDQDHPTFNKITPNLAEFAFSLYRQLAHQSNSTNIFFSPVSIATAFAMLSLGTKADTHDEILEGLNFNLTEIPEAQIHEGFQELLRTLNQPDSQLQLTTGNGLFLSEGLKLVDKFLEDVKKLYHSEAFTVNFGDTEEAKKQINDYVEKGTQGKIVDLVKELDRDTVFALVNYIFFKGKWERPFEVKDTEEEDFHVDQVTTVKVPMMKRLGMFNIQHCKKLSSWVLLMKYLGNATAIFFLPDEGKLQHLENELTHDIITKFLENEDRRSASLHLPKLSITGTYDLKSVLGQLGITKVFSNGADLSGVTEEAPLKLSKAVHKAVLTIDEKGTEAAGAVFLEAIPLSIPPEVKFNKPFVFLMIEQNTKSPLFMGKVVNPTQKGGSGGSGGSGGSGG[skipping about 600 residues]

target: T1, human neutrophil elastase; assay: cell-based or functional assay

| Binder | IC50 (nM), neutrophil elastase inhibitory assay |
| --- | --- |
| B1 | 34.6 nM |
| B2 | 45.3 nM |
| B3 | 33.7 nM |
| B4 | 31.1 nM |
